The assay addresses cGMP-specific 3',5'-cyclic phosphodiesterase (Homo sapiens, UniProt O76074). Briefly: Inhibition of phosphodiesterase 5 from human platelets.

Molecules are shown by their SMILES.

`CCc1cc(C#N)cc2c(NCc3ccc(OC)c(Cl)c3)ccnc12` returned an IC50 of 0.4 nM.

In general, IC50 refers to the midpoint of a concentration-inhibition curve. A low value points to inhibition by little substance.

(Values after ChEMBL document CHEMBL1147639, “Quinolines as extremely potent and selective PDE5 inhibitors as potential agents for treatment of erectile dysfunction” (Bioorg Med Chem Lett, 2004).)
